## CycPeptMPDB entries from one study

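The data file gives no further conditions (lipid, pH, time, direction or concentration), and values from different papers need not be comparable. The list need not hold all peptides of the study. Peptides that the database sets to -10, its floor, are left out.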

PAMPA measures passive passage through an artificial lipid membrane. Values are log10 P with P in cm/s, so -5 is more permeable than -7.

{"smiles": "CC(=O)N1CCC[C@H]1C(=O)N(C)[C@@H](CC(C)C)C(=O)N[C@@H]1C(=O)N(C)[C@@H](CC(C)C)C(=O)N(C)[C@@H](CC(C)C)C(=O)N(C)[C@@H](CC(C)C)C(=O)N(C)[C@H](C)C(=O)N[C@H](CC(C)C)C(=O)N2CCC[C@@H]2C(=O)O[C@@H]1C", "PAMPA (log10 cm/s)": "-6.25"}
{"smiles": "CC(=O)N1CCC[C@H]1C(=O)N[C@@H]1C(=O)N[C@H](CC(C)C)C(=O)N[C@H](CC(C)C)C(=O)N[C@H](CC(C)C)C(=O)N[C@H](CC(C)C)C(=O)N(C)[C@H](C)C(=O)N[C@@H](CC(C)C)C(=O)N2CCC[C@@H]2C(=O)O[C@@H]1C", "PAMPA (log10 cm/s)": "-5.07"}
{"smiles": "CC(=O)N1CCC[C@H]1C(=O)N(C)[C@@H](CC(C)C)C(=O)N[C@@H]1C(=O)N[C@@H](CC(C)C)C(=O)N[C@@H](CC(C)C)C(=O)N(C)[C@@H](CC(C)C)C(=O)N(C)[C@H](C)C(=O)N[C@H](CC(C)C)C(=O)N2CCC[C@H]2C(=O)O[C@@H]1C", "PAMPA (log10 cm/s)": "-6.29"}
{"smiles": "CC(=O)N1CCC[C@H]1C(=O)N(C)[C@@H](CC(C)C)C(=O)N[C@@H]1C(=O)N(C)[C@@H](CC(C)C)C(=O)N(C)[C@H](CC(C)C)C(=O)N(C)[C@@H](CC(C)C)C(=O)N(C)[C@@H](C)C(=O)N[C@@H](CC(C)C)C(=O)N2CCC[C@H]2C(=O)O[C@@H]1C", "PAMPA (log10 cm/s)": "-5.47"}
{"smiles": "CC(=O)N1CCC[C@H]1C(=O)N(C)[C@H](CC(C)C)C(=O)N[C@@H]1C(=O)N[C@@H](CC(C)C)C(=O)N[C@H](CC(C)C)C(=O)N(C)[C@@H](CC(C)C)C(=O)N(C)[C@@H](C)C(=O)N[C@@H](CC(C)C)C(=O)N2CCC[C@H]2C(=O)O[C@@H]1C", "PAMPA (log10 cm/s)": "-5.89"}
{"smiles": "CC(=O)N1CCC[C@H]1C(=O)N(C)[C@@H](CC(C)C)C(=O)N[C@@H]1C(=O)N[C@H](CC(C)C)C(=O)N(C)[C@H](CC(C)C)C(=O)N[C@H](CC(C)C)C(=O)N(C)[C@H](C)C(=O)N[C@H](CC(C)C)C(=O)N2CCC[C@@H]2C(=O)O[C@@H]1C", "PAMPA (log10 cm/s)": "-6.93"}
{"smiles": "CC(=O)N1CCC[C@H]1C(=O)N(C)[C@H](CC(C)C)C(=O)N[C@@H]1C(=O)N[C@H](CC(C)C)C(=O)N(C)[C@H](CC(C)C)C(=O)N(C)[C@@H](CC(C)C)C(=O)N[C@@H](C)C(=O)N[C@@H](CC(C)C)C(=O)N2CCC[C@@H]2C(=O)O[C@@H]1C", "PAMPA (log10 cm/s)": "-5.89"}
{"smiles": "CC(=O)N1CCC[C@@H]1C(=O)N(C)[C@H](CC(C)C)C(=O)N[C@@H]1C(=O)N[C@H](CC(C)C)C(=O)N[C@H](CC(C)C)C(=O)N[C@@H](CC(C)C)C(=O)N[C@@H](C)C(=O)N[C@H](CC(C)C)C(=O)N2CCC[C@H]2C(=O)O[C@@H]1C", "PAMPA (log10 cm/s)": "-6.66"}
{"smiles": "CC(=O)N1CCC[C@@H]1C(=O)N(C)[C@@H](CC(C)C)C(=O)N[C@@H]1C(=O)N(C)[C@H](CC(C)C)C(=O)N[C@@H](CC(C)C)C(=O)N(C)[C@@H](CC(C)C)C(=O)N(C)[C@H](C)C(=O)N[C@@H](CC(C)C)C(=O)N2CCC[C@@H]2C(=O)O[C@@H]1C", "PAMPA (log10 cm/s)": "-5.17"}
{"smiles": "CC(=O)N1CCC[C@H]1C(=O)N(C)[C@@H](CC(C)C)C(=O)N[C@@H]1C(=O)N(C)[C@H](CC(C)C)C(=O)N(C)[C@@H](CC(C)C)C(=O)N(C)[C@H](CC(C)C)C(=O)N(C)[C@H](C)C(=O)N[C@@H](CC(C)C)C(=O)N2CCC[C@@H]2C(=O)O[C@@H]1C", "PAMPA (log10 cm/s)": "-5.30"}
{"smiles": "CC(=O)N1CCC[C@@H]1C(=O)N(C)[C@@H](CC(C)C)C(=O)N[C@@H]1C(=O)N(C)[C@@H](CC(C)C)C(=O)N(C)[C@H](CC(C)C)C(=O)N[C@@H](CC(C)C)C(=O)N(C)[C@H](C)C(=O)N[C@H](CC(C)C)C(=O)N2CCC[C@H]2C(=O)O[C@@H]1C", "PAMPA (log10 cm/s)": "-5.56"}
{"smiles": "CC(=O)N1CCC[C@@H]1C(=O)N(C)[C@@H](CC(C)C)C(=O)N[C@@H]1C(=O)N[C@H](CC(C)C)C(=O)N[C@@H](CC(C)C)C(=O)N[C@@H](CC(C)C)C(=O)N[C@@H](C)C(=O)N[C@H](CC(C)C)C(=O)N2CCC[C@@H]2C(=O)O[C@@H]1C", "PAMPA (log10 cm/s)": "-5.51"}
{"smiles": "CC(=O)N1CCC[C@@H]1C(=O)N(C)[C@H](CC(C)C)C(=O)N[C@@H]1C(=O)N[C@H](CC(C)C)C(=O)N[C@H](CC(C)C)C(=O)N[C@H](CC(C)C)C(=O)N(C)[C@@H](C)C(=O)N[C@H](CC(C)C)C(=O)N2CCC[C@H]2C(=O)O[C@@H]1C", "PAMPA (log10 cm/s)": "-6.22"}
{"smiles": "CC(=O)N1CCC[C@H]1C(=O)N(C)[C@H](CC(C)C)C(=O)N[C@@H]1C(=O)N[C@@H](CC(C)C)C(=O)N(C)[C@H](CC(C)C)C(=O)N(C)[C@@H](CC(C)C)C(=O)N(C)[C@@H](C)C(=O)N[C@@H](CC(C)C)C(=O)N2CCC[C@H]2C(=O)O[C@@H]1C", "PAMPA (log10 cm/s)": "-5.40"}
{"smiles": "CC(=O)N1CCC[C@@H]1C(=O)N(C)[C@H](CC(C)C)C(=O)N[C@@H]1C(=O)N[C@@H](CC(C)C)C(=O)N(C)[C@@H](CC(C)C)C(=O)N(C)[C@@H](CC(C)C)C(=O)N[C@@H](C)C(=O)N[C@@H](CC(C)C)C(=O)N2CCC[C@H]2C(=O)O[C@@H]1C", "PAMPA (log10 cm/s)": "-6.97"}
{"smiles": "CC(=O)N1CCC[C@H]1C(=O)N(C)[C@@H](CC(C)C)C(=O)N[C@@H]1C(=O)N[C@H](CC(C)C)C(=O)N(C)[C@@H](CC(C)C)C(=O)N[C@H](CC(C)C)C(=O)N[C@@H](C)C(=O)N[C@H](CC(C)C)C(=O)N2CCC[C@H]2C(=O)O[C@@H]1C", "PAMPA (log10 cm/s)": "-5.93"}

2 of these entries, quoted again:

structure (SMILES)	PAMPA (log10 cm/s)
CC(=O)N1CCC[C@H]1C(=O)N(C)[C@@H](CC(C)C)C(=O)N[C@@H]1C(=O)N[C@@H](CC(C)C)C(=O)N[C@@H](CC(C)C)C(=O)N(C)[C@@H](CC(C)C)C(=O)N(C)[C@H](C)C(=O)N[C@H](CC(C)C)C(=O)N2CCC[C@H]2C(=O)O[C@@H]1C	-6.29
CC(=O)N1CCC[C@H]1C(=O)N(C)[C@H](CC(C)C)C(=O)N[C@@H]1C(=O)N[C@@H](CC(C)C)C(=O)N(C)[C@H](CC(C)C)C(=O)N(C)[C@@H](CC(C)C)C(=O)N(C)[C@@H](C)C(=O)N[C@@H](CC(C)C)C(=O)N2CCC[C@H]2C(=O)O[C@@H]1C	-5.40

Values of Kelly et al. 2021, doi:10.1021/jacs.0c06115, as listed in CycPeptMPDB.